From US9278960B2, “Quinoline carboxamide and quinoline carbonitrile derivatives as mGluR2-negative allosteric modulators, compositions, and their use” (Merck Sharp & Dohme Corp., priority 2011, dated 2016)
Counter-ions that a name gives are not always drawn.

Amino acid sequences for entries named in this document (tags omitted). Residues count along the entry.
UniProt Q14416, 19-872: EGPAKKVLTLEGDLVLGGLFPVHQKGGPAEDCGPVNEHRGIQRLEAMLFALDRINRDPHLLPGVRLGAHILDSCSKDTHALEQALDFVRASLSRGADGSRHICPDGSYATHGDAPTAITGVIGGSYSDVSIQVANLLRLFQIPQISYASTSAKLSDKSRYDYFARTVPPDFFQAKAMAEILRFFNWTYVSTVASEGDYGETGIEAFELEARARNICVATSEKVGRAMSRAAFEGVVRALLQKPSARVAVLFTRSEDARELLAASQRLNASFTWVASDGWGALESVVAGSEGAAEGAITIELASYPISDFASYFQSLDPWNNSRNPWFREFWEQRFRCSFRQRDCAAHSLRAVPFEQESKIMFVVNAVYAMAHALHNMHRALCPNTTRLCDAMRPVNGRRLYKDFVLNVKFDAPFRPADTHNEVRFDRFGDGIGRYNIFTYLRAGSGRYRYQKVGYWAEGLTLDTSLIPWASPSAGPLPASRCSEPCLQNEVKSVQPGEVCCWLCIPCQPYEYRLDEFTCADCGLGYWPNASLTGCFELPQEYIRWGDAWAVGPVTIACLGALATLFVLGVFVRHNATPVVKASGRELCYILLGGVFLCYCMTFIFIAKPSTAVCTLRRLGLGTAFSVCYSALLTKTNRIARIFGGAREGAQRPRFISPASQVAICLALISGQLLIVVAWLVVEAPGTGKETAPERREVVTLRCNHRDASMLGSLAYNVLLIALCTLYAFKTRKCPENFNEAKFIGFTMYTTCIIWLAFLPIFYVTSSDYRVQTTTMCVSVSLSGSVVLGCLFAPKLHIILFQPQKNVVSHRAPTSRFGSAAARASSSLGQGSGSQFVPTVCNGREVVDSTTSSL

target: human mGluR2 (Homo sapiens (Human), UniProt Q14416); assay: FLIPR Ca2+ mobilization antagonist assay in CHO dhfr- cells expressing recombinant human mGluR2 and Gα16; format: cell-based; details: antagonist response after addition of 2,500 nM glutamate, Fluo-4 AM, FLIPR384

In order of rising IC50:
1. COc1ccc(-c2cc(C(N)=O)nc3cc(C(C)Cc4cnc(C)nc4)ccc23)c(F)c1 (single isomer, unassigned) [Example 8-11, 4-(2-Fluoro-4-methoxyphenyl)-7-[1-(2-methylpyrimidin-5-yl)propan-2(R or S)-yl]quinoline-2-carboxamide]  6 nM
2. COc1ccc(-c2cc(C(N)=O)nc3cc(C(C)Cc4cnc(C)nc4)ccc23)c(F)c1 (single isomer, unassigned) [Example 8-10, 4-(2-Fluoro-4-methoxyphenyl)-7-[1-(2-methylpyrimidin-5-yl)propan-2(R or S)-yl]quinoline-2-carboxamide]  7 nM
3. C[C@H]1CNC(C(F)(F)F)CN1Cc1ccc2c(-c3ccc(F)cc3)cc(C(N)=O)nc2c1 (single isomer, unassigned) [Example 4-22-A, 4-(4-Fluorophenyl)-7-(((2S)-2-methyl-5(R or S)-(trifluoromethyl)piperazin-1-yl)methyl)quinoline-2-carboxamide]  9 nM
4. NC(=O)c1cc(-c2ccc(F)cc2)c2ccc(C(O)Cc3ccc(Cl)nc3)cc2n1 (single isomer, unassigned) [Example 8-1, 7-[2-(6-Chloropyridin-3-yl)-1(R or S)-hydroxyethyl]-4-(4-fluorophenyl)quinoline-2-carboxamide]  10 nM
5. C[C@H]1CNC(C(F)(F)F)CN1Cc1ccc2c(-c3ccc(F)cc3)cc(C(N)=O)nc2c1 (single isomer, unassigned) [Example 4-22-B, 4-(4-Fluorophenyl)-7-(((2S)-2-methyl-5(R or S)-(trifluoromethyl)piperazin-1-yl)methyl)quinoline-2-carboxamide]  11 nM
6. NC(=O)c1cc(-c2ccc(F)cc2)c2ccc(C(O)Cc3ccc(Cl)nc3)cc2n1 (single isomer, unassigned) [Example 8-2, 7-[2-(6-Chloropyridin-3-yl)-1(R or S)-hydroxyethyl]-4-(4-fluorophenyl)quinoline-2-carboxamide]  15 nM
7. NC(=O)c1cc(-c2ccc(Cl)cc2F)c2ccccc2n1 [Example 1-18, 4-(4-chloro-2-fluorophenyl)quinoline-2-carboxamide]  58 nM
8. NC(=O)c1cc(-c2ccc(F)cc2Cl)c2ccccc2n1 [Example 1-19, 4-(2-chloro-4-fluorophenyl)quinoline-2-carboxamide]  100 nM
9. Cc1ccc2c(-c3ccc(F)cc3)cc(C(N)=O)nc2c1 [Example 1-7, 4-(4-fluorophenyl)-7-methylquinoline-2-carboxamide]  159 nM
10. NC(=O)c1cc(-c2ccc(Br)cc2)c2ccccc2n1 [Example 1-15, 4-(4-bromophenyl)quinoline-2-carboxamide]  169 nM
11. NC(=O)c1cc(-c2c(F)cc(Cl)cc2F)c2ccccc2n1 [Example 1-9, 4-(2,6-dichloro-4-fluorophenyl)quinoline-2-carboxamide]  171 nM
12. Cc1cc(Cl)ccc1-c1cc(C(N)=O)nc2ccccc12 [Example 1-17, 4-(4-chloro-2-methylphenyl)quinoline-2-carboxamide]  368 nM
13. Cc1cscc1-c1cc(C(N)=O)nc2ccccc12 [Example 1-13, 4-(4-methylthiophen-3-yl)quinoline-2-carboxamide]  641 nM
14. NC(=O)c1cc(-c2ccc(OC(F)F)cc2)c2ccccc2n1 [Example 1-10, 4-[4-(difluoromethoxy)phen-yl]quinoline-2-carboxamide]  660 nM
15. Cc1c(-c2cc(C(N)=O)nc3ccccc23)cnn1-c1ccccc1 [Example 1-14, 4-(5-methyl-1-phenyl-1H-pyrazol-4-yl)quinoline-2-carboxamide]  667 nM
16. Cn1cc(-c2cc(C(N)=O)nc3ccccc23)cn1 [Example 1-12, 4-(1-methyl-1H-pyrazol-4-yl)quinoline-2-carboxamide]  678 nM
17. NC(=O)c1cc(-c2ccccc2Br)c2ccccc2n1 [Example 1-16, 4-(2-bromophenyl)quinoline-2-carboxamide]  681 nM
18. NC(=O)c1cc(C2=CCCC2)c2ccccc2n1 [Example 1-11, 4-cyclopent-1-en-1-ylquinoline-2-carboxamide (TFA salt)]  822 nM
